From US20070265212A1, “Drug Transport and Delivery System” (LUZERN ACQUISITION CORP., C/O STRELA DEVELOPMENT, priority 2002, published 2007) come the findings set out here.

For one series, the system named is red blood cells. The series is described as follows: Metabolite formation in the presence of red blood cells (HPLC, mass spectrometry). Particulars: 1 ml of blood containing 20 μg/ml of the ADM derivative, 5×10^9 RBC. It is filed as in vitro ADME. As for the experimental part: (§1) These metabolites were identified by HPLC and mass spectrometry to be m-L-Sarcolysin, prolyl-m-L-sarcolysin, fluoro-phenylalanine and prolyl-m-sarcolysyl-p-fluoro-phenylalanin.
(§2) According to hitherto is available results this metabolite is most probably ADM linked to one Phe moiety. This was done with 1 ml of blood containing 20 μg/ml of the ADM derivative as well as 5×10^9 RBC compared to only 5×10^6 melanoma cells.

The next series concerns human melanoma cells. Briefly: Metabolite formation in the presence of human melanoma cells (HPLC, mass spectrometry). It is filed as in vitro ADME. The conditions noted are these: 5×10^6 melanoma cells; metabolite most probably ADM linked to one Phe moiety. The method, then: as §1, §2

As for “Prolyl-adriamycin-linked-phenylalanyl-p-fluoro-phenylalanyl [PFPP-ADM]”, the “HPLC detectable metabolite in the presence of red blood cells” value with red blood cells is “no HPLC detectable metabolite”. Besides, the “metabolite generated in the presence of human melanoma cells” value with human melanoma cells is reported as “one major single metabolite”.
